In patent US20080114079A1, “TRPM2-specfic inhibitors” (priority 2006, published 2008):
“Also recorded” adds a separate entry of the source.

Sequences of proteins named here, by UniProt entry; tags and fusion partners are left off.
UniProt O94759, whole entry: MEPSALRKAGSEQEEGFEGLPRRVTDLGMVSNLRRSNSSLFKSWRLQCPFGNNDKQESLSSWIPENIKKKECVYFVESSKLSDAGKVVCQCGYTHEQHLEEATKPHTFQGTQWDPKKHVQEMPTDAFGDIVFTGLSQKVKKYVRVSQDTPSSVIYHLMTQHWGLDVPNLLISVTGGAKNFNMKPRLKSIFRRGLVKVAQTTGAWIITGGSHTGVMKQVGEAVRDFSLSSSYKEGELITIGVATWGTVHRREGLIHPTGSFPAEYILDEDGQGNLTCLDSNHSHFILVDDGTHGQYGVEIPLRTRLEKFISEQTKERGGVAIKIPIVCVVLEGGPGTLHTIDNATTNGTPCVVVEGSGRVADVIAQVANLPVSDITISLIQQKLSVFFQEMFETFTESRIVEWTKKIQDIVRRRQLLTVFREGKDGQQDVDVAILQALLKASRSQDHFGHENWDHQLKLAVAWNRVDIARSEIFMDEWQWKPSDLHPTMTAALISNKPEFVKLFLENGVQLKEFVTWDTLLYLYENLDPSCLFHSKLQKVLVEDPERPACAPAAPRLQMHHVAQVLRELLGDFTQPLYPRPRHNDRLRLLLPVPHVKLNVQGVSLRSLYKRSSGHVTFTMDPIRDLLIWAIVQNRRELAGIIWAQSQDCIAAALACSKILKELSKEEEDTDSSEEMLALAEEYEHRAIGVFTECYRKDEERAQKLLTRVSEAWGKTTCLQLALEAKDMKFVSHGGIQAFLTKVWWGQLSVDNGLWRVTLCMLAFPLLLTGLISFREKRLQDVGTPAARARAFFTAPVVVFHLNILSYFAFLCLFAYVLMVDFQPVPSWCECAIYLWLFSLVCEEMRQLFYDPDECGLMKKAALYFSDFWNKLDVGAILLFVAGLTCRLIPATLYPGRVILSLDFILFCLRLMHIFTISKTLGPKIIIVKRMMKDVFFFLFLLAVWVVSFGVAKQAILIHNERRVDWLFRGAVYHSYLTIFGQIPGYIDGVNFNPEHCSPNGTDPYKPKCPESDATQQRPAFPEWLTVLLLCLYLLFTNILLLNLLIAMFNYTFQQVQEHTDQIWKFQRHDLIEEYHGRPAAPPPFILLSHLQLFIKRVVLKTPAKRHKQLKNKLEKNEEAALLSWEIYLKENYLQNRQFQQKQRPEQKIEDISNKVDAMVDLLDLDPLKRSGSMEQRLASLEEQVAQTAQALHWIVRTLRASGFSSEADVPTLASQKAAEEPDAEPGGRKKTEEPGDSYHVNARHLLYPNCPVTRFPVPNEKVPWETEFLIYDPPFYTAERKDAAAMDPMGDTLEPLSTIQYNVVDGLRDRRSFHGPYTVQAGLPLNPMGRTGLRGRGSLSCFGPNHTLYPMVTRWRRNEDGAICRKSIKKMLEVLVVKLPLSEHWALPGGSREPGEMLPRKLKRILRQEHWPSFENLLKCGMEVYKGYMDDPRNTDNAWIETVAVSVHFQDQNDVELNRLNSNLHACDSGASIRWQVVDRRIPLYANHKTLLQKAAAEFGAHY

What was measured:
TRPM2 channels = biological target: T1, TRPM2 channels (Homo sapiens, UniProt O94759); assay: Whole-cell patch-clamp of ADPR-gated cation entry in TRPM2-expressing Jurkat T cells; type: cell-based; conditions: pipette with 0.3 mM ADPR plus 0.9 mM 8Br-ADPR (three-fold excess)
T1 construct: endogenous in cells; host or cells: Jurkat T lymphocytes
Description: Electrophysiology. Membrane currents were recorded in the whole-cell configuration of the patch-clamp technique (Hamill O. P. et al., 1981 Pflugers Arch 391:85-100). An EPC9 patch-clamp amplifier was used in conjunction with the PULSE stimulation and data acquisition software (HEKA Elektronik). The patch electrodes were made from 1.5 mm diameter borosilicate glass capillaries and filled with intracellular solution. Data were low-pass filtered at 1 kHz and compensated for both fast and slow capacity transients. Series resistance was compensated by 50-90%. All experiments were performed at room temperature with Jurkat T lymphocytes attached to high molecular weight poly-L-lysin. The pipette solution contained 145 mM K-glutamate, 8 mM NaCl, 1 mM MgCl2 and 10 mM EGTA, adjusted to pH 7.2 with KOH and to a free Ca^2+ concentration of 100 nM with CaCl2. In some experiments, the pipette solution additionally contained ADPR (0.3 mM) or ADPR (0.3 mM) plus 8Br-ADPR (0.9 mM). The external solution contained 145 mM NaCl, 2 mM MgCl2, 1 mM CaCl2, 2.8 mM KCl, 10 mM HEPES and 10 mM glucose, adjusted to pH 7.2 with NaOH. The cells were held at −60 mV and I-V relations were obtained every 20 sec using 250 ms voltage ramps from −100 to +100 mV.

[1] = test system: store-operated Ca^2+ channels (SOC); assay: Ca2+ mobilization assay, thapsigargin-induced store-operated Ca2+ entry in neutrophils and DCs; type: cell-based, mouse; conditions: 100 μM, 15 min preincubation, thapsigargin 1 μM
Description: (§1) Ca^2+ mobilization assays. Bone marrow neutrophils (1×10^7/ml) and DCs (1×10^6/ml) were loaded with a mixture of Fluo-3 AM and Fura-Red AM as previously described (Partida-Sanchez, S. et al., 2001 Nature Medicine 7:1209-1216; Partida-Sanchez S. et al., 2004 Immunity 20:279-291). The cells were preincubated in media, 8Br-cADPR, 8Br-ADPR or 8Br-NAD^+ (100 μM each) for 15 minutes and then stimulated. The accumulation of intracellular free Ca^2+ was assessed by flow cytometry by measuring the fluorescence emission of Fluo-3 in the FL-1 channel and Fura-Red in the FL-3 channel over time. Data were analyzed using FlowJo 4.0 software (Tree Star). Relative intracellular free Ca^2+ levels are expressed as the ratio between Fluo-3 and Fura-Red mean fluorescence intensity.

[2] = test system: mouse bone marrow neutrophils; assay: Ca2+ mobilization assay in chemoattractant-stimulated bone marrow neutrophils (flow cytometry, Fluo-3/Fura-red); type: cell-based; conditions: 100 μM, 15 min
Description: as §1

mouse DCs = assay: Ca2+ mobilization assay in chemokine-stimulated DCs; type: cell-based; conditions: 100 μM, 15 min, CXCL12 50 ng/ml
Description: as §1

[3] = test system: mouse bone marrow neutrophils; assay: Oxidant (H2O2)-induced Ca2+ influx in bone marrow neutrophils; type: cell-based; conditions: 100 μM, 15 min, H2O2 100 μM
Description: as §1

[4] = test system: mouse bone marrow neutrophils; assay: Transwell chemotaxis assay, mouse bone marrow neutrophils; type: cell-based
Description: (§2) Chemotaxis assays. Chemotaxis assays were performed as previously described (Partida-Sanchez, S. et al., 2001 Nature Medicine 7:1209-1216; Partida-Sanchez S. et al., 2004 Immunity 20:279-291). Briefly, cells were pretreated for 15 minutes with media 8Br-cADPR, 8Br-ADPR or 8Br-NAD^+ (100 μM each). Treated cells (1×10^6 neutrophils or 1×10^5 DCs) were added to the upper chamber of the transwell (3-μm for neutrophils or 5-μm for DCs) (Costar). After incubating the chambers for 45 min (neutrophils) or 90 min (DCs) at 37° C., the transmigrated cells were collected from the lower chamber, fixed, and counted on a flow cytometer. The results are expressed as the mean ±SD of the chemotaxis index (CI) for triplicate wells. The CI represents the fold-change in the number of untreated or inhibitor-pretreated cells that migrated in response to the chemoattractant divided by the basal migration of untreated or antagonist pretreated cells migrating in response to control medium.

[5] = test system: bone marrow-derived immature or TNFα-matured DCs; assay: Transwell chemotaxis assay, bone marrow-derived DCs; type: cell-based, mouse; conditions: 100 μM, 15 min pretreatment
Description: as §2

human neutrophils = assay: Transwell chemotaxis assay, human peripheral blood neutrophils; type: cell-based; conditions: 100 μM, 15 min, A5 peptide 1 μM
Description: as §2

[6] = HPLC analysis of catabolites after incubation with bone marrow neutrophils; type: in vitro ADME, mouse
Description: HPLC analysis of catabolites produced by CD38-expressing cells. Neutrophils were incubated with 8Br-NAD^+ (500 μM), 8Br-cADPR (100 μM), or 8Br-ADPR (100 μM) for 0 (no cells in reaction) to 15 minutes at 37° C. The supernatants were collected after centrifugation, concentrated and flash frozen. Aliquots were analyzed by reversed-phase HPLC (Kontron Instruments) using a Multohyp BDS C18 column (250 mm×4.6 mm, particle size 5 μm, Chromatographie Service). Absorbance was measured at 270 nm using a UV detector (Kontron 432) and data were processed by the MT2 data acquisition system from Kontron Instruments. Peaks were identified by comparison to known standards and the area under each curve was quantified to determine relative amounts of each metabolite.

8-bromo adenosine diphosphoribose [8Br-ADPR]
effect on ADPR-induced cation entry (membrane current at -60 mV) (TRPM2 channels): abrogated
effect on capacitative Ca2+ influx induced by thapsigargin [1]: had absolutely no effect
effect on intracellular Ca2+ release after IL-8 ([2]; IL-8 100 nM, Ca2+ free buffer (EGTA 2 mM)): had no effect
effect on IL-8 induced Ca2+ response ([2]; IL-8 100 nM, Ca2+-containing media): neither compound had any effect
effect on intracellular Ca2+ release after fMLP ([2]; fMLP 1 μM, Ca2+ free buffer (EGTA 2 mM)): had no effect
effect on extracellular Ca2+ influx in fMLP-stimulated WT neutrophils ([2]; fMLP 1 μM, Ca2+-containing media, WT): significant reduction; also recorded: blocked
effect on Ca2+ influx in fMLP-stimulated Parp1-/- neutrophils ([2]; fMLP 1 μM, Parp1-/-): blocked
effect on Ca2+ response of CXCL12-stimulated immature DCs (mouse DCs): also blocked
effect on H2O2-induced Ca2+ influx in Cd38-/- neutrophils ([3]; Cd38-/-): did not block
effect on H2O2-induced Ca2+ influx in WT neutrophils ([3]; WT): did not block
inhibition of cell migration to fMLP ([4]; 2.5 μM 8Br-ADPR, 15 min, fMLP 1 μM): at least 50%
effect on chemotactic response of WT neutrophils to fMLP ([4]; 100 μM, 15 min, fMLP 1 μM, 45 min, WT): efficiently inhibited; also recorded: significantly inhibited
effect on chemotactic response of Parp1-/- neutrophils to fMLP ([4]; 100 μM, 15 min, fMLP 1 μM, Parp1-/-): significantly inhibited
effect on chemotactic response of neutrophils to IL-8 ([4]; 100 μM, IL-8 100 nM, 45 min): neither 8Br-ADPR nor 8Br-cADPR blocked
effect on chemotactic response of CD38KO (Cd38-/-) neutrophils to fMLP ([4]; 15 min, fMLP 1 μM, CD38KO): no further inhibition; also recorded: did not further inhibit the response
chemotactic response of TNFα-matured DCs to CCL21 [5]: made poor chemotactic responses
chemotactic response of immature DCs to CXCL12 [5]: made poor chemotactic responses
effect on migration of human neutrophils to FPRL1 ligand A5 peptide (human neutrophils): effectively inhibited
8Br-cADPR in the preparation before or after incubation with neutrophils ([6]; before and 15 minutes after incubation): no 8Br-cADPR was detected
compound catabolized to 8Br-AMP after incubation with leukocytes ([6]; over 15 minutes, mouse bone marrow neutrophils): < 1.5%
